Results from patent US9604850B2, “Ammonia borane purification method” (WeylChem Sustainable Materials, LLC, priority 2013, dated 2017).

Settings: about 5 weight % NaOH in solution, 25° C.

In the case of ammonia borane, the “solubility in sodium hydroxide solution” value was “similar”.
